Reference: PMC7480106

Biological target: Igκ-Nrxn1β^SS4-SS5--ECD-ΔCHO-Myc-6xHis (HEK293S GnTI−, BacMam) (mouse)
Assay: SEC-MALS

FAM19A1-V5 (HEK293S GnTI−, BacMam) (from UniProt Q7TPG8 20-133) (ligand)
stoichiometry N: 1
